# Results: PubChem BioAssay (NCATS)
# Sequences of proteins named here, by UniProt entry; tags and fusion partners are left off.
# UniProt Q14994, whole entry: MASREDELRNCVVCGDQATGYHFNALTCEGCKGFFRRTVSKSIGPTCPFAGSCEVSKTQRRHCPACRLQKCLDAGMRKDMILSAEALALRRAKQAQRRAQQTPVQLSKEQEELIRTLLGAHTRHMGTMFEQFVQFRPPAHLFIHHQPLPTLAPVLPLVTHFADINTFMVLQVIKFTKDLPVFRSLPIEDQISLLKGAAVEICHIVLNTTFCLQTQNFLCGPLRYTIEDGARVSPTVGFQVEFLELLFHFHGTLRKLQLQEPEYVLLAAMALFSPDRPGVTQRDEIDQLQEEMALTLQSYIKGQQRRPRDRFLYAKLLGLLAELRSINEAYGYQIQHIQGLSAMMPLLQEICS
# Only a part is listed here, and it is no random draw. Records with an inconclusive call do not appear. Some salts or complexes appear as unconnected parts, following the source record. Active and inactive are the calls of the source. Unless noted, calls follow the shape of the dose curve; as a rule, active = well fitted curve in the direction sought with a large enough effect; inconclusive = small, poorly fitted or top-dose-only effect, or another doubt; inactive = no such curve, though single readings can be large; an effect the other way counts as inactive or inconclusive.
# Columns and labels:
# [1] = target: Rap guanine nucleotide exchange factor 3 (Homo sapiens) (UniProt O95398); experiment: Counterscreen qHTS for antagonist of cAMP-regulated guanine nucleotide exchange factor 3 (EPAC1) (AID 1645888); settings: Rap1B-BODIPY-GDP nucleotide exchange, fluorescence; at 154 µM (top of the series);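 also: fluorescence loss as bound BODIPY-GDP is released from Rap1B; % of control where 0% means no effect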
# Summary of the method: (§1)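 Rap1B–BODIPY-GDP (250 nM) with 50 uM GDP; compounds pin-transferred to 9.74 nM–152 uM final (activator) or from 7.32 nM upwards (inhibitor). Fluorescence Ex/Em 480/540 nm read at 5 and 30 min, then after adding cAMP or buffer, at room temperature.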
# [2] = target: Rap guanine nucleotide exchange factor 3 (Homo sapiens) (UniProt O95398); experiment: Counterscreen qHTS for agonist of cAMP-regulated guanine nucleotide exchange factor 3 (EPAC1) (AID 1645889); settings: EPAC1 Rap1B-BODIPY-GDP exchange, fluorescence; at 154 µM (top of the series); also: % of control where 0% means no effect; nearly all actives have a fitted effect of over 40% in size
# Summary of the method: as §1
# [3] = target: Guanidinoacetate N-methyltransferase (Homo sapiens) (UniProt Q14353); experiment: Confirmatory Screen for Target Class Profiling of Small Molecule Inhibitors of Methyltransferases (AID 1745852; calls by dose curve; also: potency is read from the fitted curve at half-maximal effect); settings: MTase-Glo luminescence, SAH detection, recombinant enzyme
# [4] = target: Luciferin 4-monooxygenase (Photinus pyralis) (UniProt P08659); experiment: Primary firefly luciferase (FLuc) qHTS assay for identification of artifact compounds. (AID 1845220); settings: purified firefly luciferase, luminescence, 5 min; at 54.1 µM (top of the series) unless noted;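 also: plate controls were DMSO vehicle for no effect and no enzyme for full effect; nearly all actives have a fitted effect of over 60% in size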
# Summary of the method: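 D-luciferin and ATP (10 uM each, final) in Tris acetate buffer pH 7.6 were incubated with compounds for 15 min at room temperature. The reaction was started with 10 nM Photinus pyralis luciferase and luminescence read after 5 min. Percent inhibition was fitted to a 4-parameter Hill equation.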
# [5] = Primary fluorescence-based thiol-reactive (MSTI) qHTS assay for identification of artifact compounds. (AID 1845221); also: nearly all actives have a fitted effect of over 65% in size; also: potency is read from the fitted curve at half-maximal effect
# Summary of the method: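 First, 4 uM MSTI in 2% DMSO/PBS pH 7.4 was dispensed; next, compounds were added; then plates sat 1 h at room temperature without light. Finally, emission at 598 nm was recorded.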
# [6] = target: Nuclear receptor subfamily 1 group I member 3 (Homo sapiens) (UniProt Q14994); experiment: Primary qHTS for antagonist of constitutive androstane receptor (CAR) against the NCATS DSHEA and TCM libraries (AID 1794836); settings: CAR reporter cell assay, antagonist mode, luciferase; at 40 µM (top of the series);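 also: HepG2 cells stably expressing hCAR with CYP2B6 luciferase reporter stimulated by CITCO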
# Summary of the method: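 HepG2-CYP2B6-hCAR cells, attached 5 h, given compounds plus CITCO agonist […], incubated 24 h at 37 C. Luciferase luminescence read, multiplexed with CellTiter-Fluor viability (Ex/Em 405/540 nm).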
# [7] = Viability counterscreen for agonist of constitutive androstane receptor (CAR) against the NCATS DSHEA and TCM libraries (AID 1794838); settings: HepG2 cell viability counterscreen, CAR agonist assay, co-treated with 0.75 µM CAR antagonist; at 40 µM (top of the series);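 also: HepG2 cells with CYP2B6 reporter and hCAR plus 0.75 µM PK11195 antagonist; 0% is about no effect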
# Summary of the method: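 Cell health was measured as CellTiter-Fluor signal in HepG2-CYP2B6-hCAR cells treated for 24 h with substances alongside the hCAR antagonist PK11195 (0.75 uM final).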
# [8] = HepG2 viability counterscreen (readout 2: ATP content) against the NCATS DSHEA and TCM libraries (AID 1794840); settings: ATP content luminescence; at 27.3 µM (top of the series); also: 0% is about no effect
# Summary of the method: (§2)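 Same wells read twice: first fluorescence from cleaved GF-AFC substrate (25 uM final, 30 min, 37C) for live-cell protease, then CellTiter-Glo luminescence after 30 min at room temperature for ATP. HepG2 cells were exposed ~24 h to substances.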
# [9] = HepG2 viability counterscreen (readout 1: protease activity) against the NCATS DSHEA and TCM libraries (AID 1794841); settings: qHTS concentration series; at 27.3 µM (top of the series);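 also: cells exposed to compounds for about 24 h before the protease read; 0% is about no effect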
# Summary of the method: as §2
# [10] = test system: Nanoluciferase (engineered Oplophorus gracilirostris luciferase); experiment: Primary Nanoluciferase (NLuc) qHTS assay for identification of artifact compounds. (AID 1845222); settings: NLuc-conditioned medium, Nano-Glo luminescence, 5 min; at 54.1 µM (top of the series);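 also: 0% = DMSO and -100% = no enzyme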
# Summary of the method: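 Diluted conditioned medium from NLuc-expressing S16 cells treated with compounds for 15 min at room temperature, then Nano-Glo substrate added; luminescence read after 5 min. Percent inhibition versus no-enzyme and DMSO controls fitted to 4-parameter Hill equation.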
# [11] = Primary redox qHTS assay for identification of artifact compounds. (AID 1845223); settings: Amplex Red/HRP redox cycling with DTT, fluorescence; at 53.8 µM (top of the series);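 also: 0% = DMSO and 100% = reference compound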
# Summary of the method: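 Amplex Red (25 uM) and HRP (250 mU/mL) in HBSS, with compounds for 15 min, then 250 uM DTT for 30 min, room temperature, dark. Fluorescence 525/598 nm read; normalized to DMSO and 10 uM DA3003; Hill fit.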
# [12] = Quantitative High-Throughput drug screen in 47 multiple myeloma cell lines against the NCATS MIPE library collection: ARP1_JJKsccF8 cell viability assay (AID 1918928;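 also: 100% = DMSO only wells and 0% = medium only wells; nearly all actives have a fitted effect of over 40% in size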); settings: ARP1 myeloma cells viability, CellTiter-Glo ATP, 48 h; at 23.2 µM (top of the series)
# Summary of the method: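 Luminescence from CellTiter-Glo, taken after 5 min at room temperature, reports cellular ATP as viability. Cells (500 per well) had been treated 48 h at 37 °C with MIPE 4.0 compounds, scaled between DMSO and medium-only controls.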
# [13] = Quantitative High-Throughput drug screen in 47 multiple myeloma cell lines against the NCATS MIPE library collection: ARD_JJKsccE7 cell viability assay (AID 1918929;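 also: 100% = DMSO-only wells and 0% = media-only wells without cells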); settings: ARD myeloma cell line viability, CellTiter-Glo, 48 h; at 23.2 µM (top of the series)
# Summary of the method: (§3)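 Inhibition of cell viability is measured here. Each line was plated at 500 cells per well, treated with MIPE 4.0 drugs, kept 48 hours at 37C, then assayed for ATP content by CellTiter-Glo luminescence.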
# [14] = Quantitative High-Throughput drug screen in 47 multiple myeloma cell lines against the NCATS MIPE library collection: JIM3_ECACC cell viability assay (AID 1918963; also: potency is read from the fitted curve at half-maximal effect; nearly all actives have a fitted effect of over 35% in size); settings: JIM3 myeloma viability, CellTiter-Glo ATP, 48 h
# Summary of the method: as §3
# [15] = Quantitative High-Throughput drug screen in 47 multiple myeloma cell lines against the NCATS MIPE library collection: H1112_PLB cell viability assay (AID 1918967; also: nearly all actives have a fitted effect of over 30% in size); settings: H1112 myeloma cells viability, ATP luminescence, 48 h; at 23.2 µM (top of the series)
# Summary of the method: as §3
# [16] = Quantitative High-Throughput drug screen in 47 multiple myeloma cell lines against the NCATS MIPE library collection: Karpas25_ECACC cell viability assay (AID 1918968;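 also: 100% = DMSO only wells and 0% = media only wells; nearly all actives have a fitted effect of over 35% in size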); settings: Karpas25 myeloma viability, CellTiter-Glo ATP, 48 h; at 23.2 µM (top of the series)
# Summary of the method: as §3
# [17] = Quantitative High-Throughput drug screen in 47 multiple myeloma cell lines against the NCATS MIPE library collection: KMS12BM_JCRB cell viability assay (AID 1918971); settings: KMS12BM myeloma viability, CellTiter-Glo ATP, 48 h; at 23.2 µM (top of the series);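 also: 100% = DMSO-only wells and 0% = media-only wells without cells; nearly all actives have a fitted effect of over 35% in size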
# Summary of the method: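 Steps: seed 500 cells per well; pin-transfer MIPE 4.0 library; incubate 48 h at 37C, 5% CO2, humidified; add CellTiter-Glo, 5 min room temperature; read luminescence.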
# [18] = Quantitative High-Throughput drug screen in 47 multiple myeloma cell lines against the NCATS MIPE library collection: KMS12PE_JCRB cell viability assay (AID 1918972); settings: KMS12PE myeloma viability, CellTiter-Glo ATP, 48 h; at 23.2 µM (top of the series);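 also: 100% = DMSO only wells and 0% = wells with media alone; nearly all actives have a fitted effect of over 30% in size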
# Summary of the method: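 qHTS of the MIPE 4.0 collection: 500 myeloma cells/well, 48 h drug exposure at 37C in 5% CO2, then CellTiter-Glo for 5 min at room temperature before luminescence reading.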
structure (smiles),measurement,setting,value
O=[N+]([O-])c1cc([N+](=O)[O-])c(C(F)(F)F)c([N+](=O)[O-])c1O,"activity change, negative = inhibition",[1],inactive: 3.6%
same,activation,[2],inactive: 13%
C/C1=C2N=C(/C=C3N=C(/C(C)=C4\N=C(C(CC(N)=O)C4(C)CCC(=O)NCC(C)OP(=O)([O-])OC4C(CO)OC(n5cnc6cc(C)c(C)cc65)C4O)C4(C)N=C1C(CCC(N)=O)C4(C)CC(N)=O)C(CCC(N)=O)C\3(C)C)C(CCC(N)=O)C/2(C)CC(N)=O.[C-]#N.[Co] (stereo not given),Potency,[3],active: 16.7 µM [inhibitor]
same,"activity change, negative = inhibition",[4],inactive: -12.7% [at 25.7 µM]
same,Potency,[5],active: 2.92 µM
C/C1=C2N=C(/C=C3N=C(/C(C)=C4\[N-][C@@](C)([C@@H]5N=C1[C@](C)(CCC(=O)NC[C@@H](C)OP(=O)([O-])O[C@H]1[C@@H](O)[C@@H](n6cnc7cc(C)c(C)cc76)O[C@@H]1CO)[C@H]5CC(N)=O)[C@@](C)(CC(N)=O)[C@@H]4CCC(N)=O)[C@@](C)(CC(N)=O)[C@@H]\3CCC(N)=O)C(C)(C)[C@@H]/2CCC(N)=O.[C-]#N.[Co+3],"activity change, negative = inhibition",[6],inactive: -4.29%
same,"activity change, negative = cytotoxicity",[7],inactive: -53.6%
same,"activity change, negative = cytotoxic",[8],inactive: -0.621%
same,"activity change, negative = inhibition",[9],inactive: 9.45%
CCOP(=O)(CC)Oc1ccc([N+](=O)[O-])cc1 (stereo not given),"activity change, negative = inhibition",[4],inactive: 1.43%
same,Potency,[5],inactive
same,"activity, negative = inhibition",[10],inactive: -1.35%
same,redox activity (% of DA3003),[11],inactive: -3.1%
CC1=C2[N-][C@@](C)([C@@H]3N=C(C(C)=C4N=C(C=C5N=C1[C@@](C)(CC(N)=O)[C@H]5CCC(N)=O)C(C)(C)[C@H]4CCC(N)=O)[C@](C)(CCC(=O)NC[C@@H](C)OP(=O)([O-])O[C@H]1[C@@H](O)[C@@H](n4cnc5cc(C)c(C)cc54)O[C@H]1CO)[C@H]3CC(N)=O)[C@@](C)(CC(N)=O)[C@@H]2CCC(N)=O.[C-]#N.[Co+3],viability,[12],inactive: 83.1%
same,viability,[13],inactive: 95.9%
same,Potency,[14],active: 0.0645 µM
same,viability,[15],inactive: 95.7%
same,viability (% of control),[16],inactive: 99.4%
same,"viability, % of DMSO",[17],inactive: 120%
same,viability,[18],inactive: 97.3%
